# Literature values as cited in patent US20160271257A1, “Low Molecular Weight Immune-Modulators As Adjuvants for Specific Immunotherapy” (PLS-DESIGN GMBH, priority 2013, published 2016).
substance,measurement,setting,value
VLGGG CALLRC IPALD SLTPA NED [p277],mice developing diabetes within 30 days,"i.p. 50 μg in IFA, two weeks later MT-hsp65 (50 μg) in IFA",None of 10
same,mice developing blood glucose higher than 130 mg/dl within 3 weeks,single i.p. 50 μg in IFA,None of 7
